Literature values in US20080124407A1, “INHIBITING CYP3A4 INDUCTION” (UNIVERSITY OF WASHINGTON, priority 2006, published 2008).

Details: human volunteers; cited from earlier work

For `CO[C@H]1/C=C/O[C@@]2(C)Oc3c(C)c(O)c4c(O)c(c(/C=N/N5CCN(C)CC5)c(O)c4c3C2=O)NC(=O)/C(C)=C\C=C\[C@H](C)[C@H](O)[C@@H](C)[C@@H](O)[C@@H](C)[C@H](OC(C)=O)[C@@H]1C` [RIF, Rifampicin], which “decrease in the AUC of the plasma concentration-time curve of orally administered midazolam” value is on record?
The value was 95%.
